“Also recorded” adds a separate entry of the source.
Test system: hot plate latency in catheterized rats
Experiment: Rat hot plate antinociception assay
Assay type: in vivo, Sprague–Dawley rats
Conditions: 0.1 mg/kg (i.v.) naltrexone after cumulative doses

SMILES: CN1CC[C@]23c4c5ccc(O)c4O[C@H]2[C@@H](O)C=C[C@H]3[C@H]1C5 [morphine, reference compound]
- Reversal of antinociception by naltrexone: fully reversed; also recorded: antagonized by naltrexone

— publication PMC8693998 (Journal of natural products, 2021)
